Measurements published in patent US9278947B2 (dated 2016).

Amino acid sequences for entries named in this document (tags omitted).
UniProt P14842, whole entry: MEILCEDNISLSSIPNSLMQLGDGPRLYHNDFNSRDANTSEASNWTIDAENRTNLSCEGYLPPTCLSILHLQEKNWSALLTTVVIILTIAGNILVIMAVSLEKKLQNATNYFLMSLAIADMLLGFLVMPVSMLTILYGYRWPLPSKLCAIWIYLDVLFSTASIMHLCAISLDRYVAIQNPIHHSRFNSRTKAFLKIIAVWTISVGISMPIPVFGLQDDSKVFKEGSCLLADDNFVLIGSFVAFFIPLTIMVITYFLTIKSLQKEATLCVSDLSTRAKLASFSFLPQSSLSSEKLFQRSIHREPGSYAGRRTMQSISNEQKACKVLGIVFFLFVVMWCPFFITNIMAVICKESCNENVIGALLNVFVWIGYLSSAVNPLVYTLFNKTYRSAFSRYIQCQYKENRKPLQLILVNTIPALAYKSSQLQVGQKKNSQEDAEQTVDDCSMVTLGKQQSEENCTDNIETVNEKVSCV

Target: rat brain membranes serotonin 5-HT2A receptors (Rattus norvegicus, UniProt P14842)
Details: up to 10 μM

Row | Structure (SMILES) | inhibition of [^3H]ketanserin binding
1 | CN(C)CCCC1(c2ccc(F)cc2)OCc2cc(C#N)ccc21 (centres unmarked) [Citalopram, 1-(3-Dimethylamino-propyl)-1-(4-fluoro-phenyl)-1,3-dihydro-isobenzofuran-5-carbonitrile] | did not inhibit
2 | C[N+](C)(C)CCCC1(c2ccc(F)cc2)OCc2cc(C#N)ccc21 (centres unmarked) [NMC] | did not inhibit
